Source: patent US20100240872A1 (FORERUNNER PHARMA RESEARCH, published 2010)

Target: Mucin 17 (Muc17) on AsPc1 pancreatic cancer cells (human, UniProt Q685J3 26-4493)
Assay: flow cytometry on AsPc1 cells, FITC anti-human IgG detection

binding result: binds
B1: chi.MQ128 (anti-Muc17 mouse-human chimeric antibody MQ128) (antibody, V domains shown)
VH: QVQLQQSGAELVRPGSSAKISCKASGYEFSSHWMNWVKQRPGQGLEWIGQIYPGDGDINYNGKFKGKATLTADKSSSTVYMQLSSLTSEDSAVYFCARHYNYAMDYWGQGTSVTVSS
VL: QIVLTQSPAIMSASPGEKVTISCSASSSVSYMCWYQQKPGSSPKPWIYRTSNLASGVPARFSGSGSGTSYSLTISSMEAEDAATYYCQQFHSYPRTFGGGTKLEIKR
